Protein sequences, listed by entry. Tags and fused reporters are not part of them. Residues count along the entry.
UniProt P02768, 25-609: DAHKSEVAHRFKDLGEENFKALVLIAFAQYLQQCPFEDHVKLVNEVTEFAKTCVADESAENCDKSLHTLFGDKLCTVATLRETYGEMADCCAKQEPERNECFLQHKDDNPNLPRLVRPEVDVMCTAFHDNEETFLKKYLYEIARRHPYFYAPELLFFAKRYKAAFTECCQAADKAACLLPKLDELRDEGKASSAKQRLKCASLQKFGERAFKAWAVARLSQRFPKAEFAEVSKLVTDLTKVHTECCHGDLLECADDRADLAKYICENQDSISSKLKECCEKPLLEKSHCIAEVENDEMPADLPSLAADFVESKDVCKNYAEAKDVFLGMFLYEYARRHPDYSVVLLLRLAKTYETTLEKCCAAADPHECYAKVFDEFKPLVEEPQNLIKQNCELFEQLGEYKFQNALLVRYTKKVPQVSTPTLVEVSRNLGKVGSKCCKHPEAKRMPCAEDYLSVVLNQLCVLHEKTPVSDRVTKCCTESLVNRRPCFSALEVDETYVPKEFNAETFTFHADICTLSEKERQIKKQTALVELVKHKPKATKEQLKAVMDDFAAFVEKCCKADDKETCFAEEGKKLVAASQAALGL
UniProt P02769, 25-607: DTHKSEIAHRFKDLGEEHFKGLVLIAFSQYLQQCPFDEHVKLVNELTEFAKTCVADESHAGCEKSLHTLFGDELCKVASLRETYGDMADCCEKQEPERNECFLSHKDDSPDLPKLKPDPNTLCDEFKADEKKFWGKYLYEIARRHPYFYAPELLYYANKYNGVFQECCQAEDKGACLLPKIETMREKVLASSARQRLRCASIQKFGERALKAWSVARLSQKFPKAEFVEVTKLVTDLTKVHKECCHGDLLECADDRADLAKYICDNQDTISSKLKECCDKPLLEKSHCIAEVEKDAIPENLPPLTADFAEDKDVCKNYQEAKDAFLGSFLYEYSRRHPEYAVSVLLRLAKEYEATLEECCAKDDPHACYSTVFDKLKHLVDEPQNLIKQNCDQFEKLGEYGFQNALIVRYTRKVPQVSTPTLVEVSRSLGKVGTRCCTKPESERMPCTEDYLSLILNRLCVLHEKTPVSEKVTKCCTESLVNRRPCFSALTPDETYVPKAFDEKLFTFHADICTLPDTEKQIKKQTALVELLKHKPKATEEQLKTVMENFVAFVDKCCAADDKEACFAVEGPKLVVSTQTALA

According to US9448243B2, “Weak affinity chromatography” (priority 2013, dated 2016):

Key:
[1] = target: human serum albumin (HSA) (Homo sapiens, UniProt P02768); assay: Weak affinity chromatography of steroids on HSA column; assay type: binding; conditions: HSA 99% purity, 118 mg/g silica, 20° C.
Description: Four columns were prepared, a blank diol-silica column (column A) having no binding ligands and 3 columns (columns B, C, D) loaded with albumin as the binding ligand. Column B was a silica packed column (7 μm, 300 Å porosity) loaded with 96% purity bovine serum albumin (BSA) at a concentration of 66 mg of BSA per gram of silica. Column C was a silica packed column (7 μm, 300 Å porosity) loaded with 99% purity bovine serum albumin (BSA) at a concentration of 77 mg of BSA per gram of silica. Column D was a silica packed column (7 μm, 300 Å porosity) loaded with 99% purity human serum albumin (HSA) at a concentration of 118 mg of HSA per gram of silica. All four column dimensions were 2.1×50 mm stainless steel. Immobilization of the ligands was performed batchwise with periodate activation. 0.5 g of diol-silica was used with 5 ml of H2O added. The silica was sonicated for 2 minutes, and 0.5 g of periodic acid was added to convert the diol groups to aldehyde-groups. After 2 hours of mixing, the aldehyde-silica was washed with 100 mM phosphate, pH 7.0. 5 ml of the respective ligand in 100 mM phosphate buffer, pH 7.0, was prepared. Ligand concentration was 10 mg/ml. […]
The columns were tested with the PBS buffer and the Am-Ac listed above. The capacity factor (k′) and dissociation constant (Kd) were determined as set forth in U.S. Pat. No. 4,879,247 issued on Nov. […]

[2] = target: bovine serum albumin (BSA) (Bos taurus, UniProt P02769); assay: Weak affinity chromatography of steroids on BSA columns (columns B, C); assay type: binding; conditions: 20° C.; for k′ (capacity factor), Column B: BSA 96% purity, 66 mg/g silica; for k′ (capacity factor), Column C: BSA 99% purity, 77 mg/g silica
Description: Four columns were prepared, a blank diol-silica column (column A) having no binding ligands and 3 columns (columns B, C, D) loaded with albumin as the binding ligand. Column B was a silica packed column (7 μm, 300 Å porosity) loaded with 96% purity bovine serum albumin (BSA) at a concentration of 66 mg of BSA per gram of silica. Column C was a silica packed column (7 μm, 300 Å porosity) loaded with 99% purity bovine serum albumin (BSA) at a concentration of 77 mg of BSA per gram of silica. Column D was a silica packed column (7 μm, 300 Å porosity) loaded with 99% purity human serum albumin (HSA) at a concentration of 118 mg of HSA per gram of silica. All four column dimensions were 2.1×50 mm stainless steel. Immobilization of the ligands was performed batchwise with periodate activation. 0.5 g of diol-silica was used with 5 ml of H2O added. The silica was sonicated for 2 minutes, and 0.5 g of periodic acid was added to convert the diol groups to aldehyde-groups. After 2 hours of mixing, the aldehyde-silica was washed with 100 mM phosphate, pH 7.0. 5 ml of the respective ligand in 100 mM phosphate buffer, pH 7.0, was prepared. Ligand concentration was 10 mg/ml. 250 μl NaCNBH3, concentration of 0.1 mg/ml, was added. Coupling time was 40 hours at room temperature (22° C.) on mixing table.
The system comprised the columns used in an Agilent 1200-LC-MS system. The steroids were all dissolved in ethanol at a concentration of 0.05 μg/μl. 2 μl samples were run in duplicate. Solvent buffers used included phosphate buffered saline (PBS) at pH 7.4 and 5 mM ammonium-acetate (Am-Ac) salt, pH 6.9. Column temperature was 20° C. with a flow rate of 0.400 ml/min. Detection included the use of UV diode-array detector (DAD) at 237 nm.
The columns were tested with the PBS buffer and the Am-Ac listed above. The capacity factor (k′) and dissociation constant (Kd) were determined as set forth in U.S. Pat. No. 4,879,247 issued on Nov. 7, 1989 to Sten Ohlson, which is hereby incorporated by reference in its entirety.

With C[C@]12C=CC(=O)C=C1CC[C@@H]1[C@@H]2[C@@H](O)C[C@@]2(C)[C@H]1CC[C@]2(O)C(=O)CO [Prednisolone, prednisolone] the “k′ (capacity factor), Column D” value ([1]; 5 mM Am-Ac buffer pH 6.9) was 1.56, the “k′ (capacity factor), Column D” value ([1]; PBS buffer pH 7.4) was 1.64 and the “k′ (capacity factor), Column B” value ([2]; 5 mM Am-Ac buffer pH 6.9) was 1.13. For the same molecule, the “k′ (capacity factor), Column C” value ([2]; 5 mM Am-Ac buffer pH 6.9) was 1.34, the “k′ (capacity factor), Column B” value ([2]; PBS buffer pH 7.4) was 1.27 and the “k′ (capacity factor), Column C” value ([2]; PBS buffer pH 7.4) was 1.41.
